Entries after “also recorded” stand apart in the source; their conditions may differ.
Tested on: CD34+ HE cells
Assay: Stroma-free T cell differentiation with or without IL-3 in the first differentiation medium
Format: cell-based, human
Conditions: IL-3 during first week
Protocol: 24 well non-tissue culture treated plates were coated with 10 μg/ml recombinant human DL4-Fc protein (Life Technologies, A42510) and 2 μg/ml VCAM-1 (Shukla et al., 2017) (R&D, 862VC100) in PBS for 2 hours at 4° C. CD34+ HE cells (1×10^5 cells/well) were then seeded on DL4-coated plates and cultured in SFEMII (StemCell Tech, 09605) media supplemented with 10% BIT serum substitute (StemCell Tech, 09500), 2 mM L-Glutamine (Gibco, 35050061), 1 mM sodium pyruvate (Gibco, 11360070), 50 μg/ml 2-phospho-L-ascorbic acid (Huijskens et al., 2014) (sigma, 49752), 55 μM 2-Mercaptoethanol (Gibco, 21985023), 1 mM None-essential amino acids (Gibco, 11140050), 1% penicillin-streptomycin (Corning, 30002CI), 30 ng/ml SCF, 20 ng/ml FLT3, 30 ng/ml IL-7, 5 ng/ml IL-3 (first week only), and 5 ng/ml TPO for 2 weeks to induced the differentiation into proT cells. For the production of EZ-T cells, EZH1 knockdown was performed via lentiviral transduction (MOI=5) after 24 hours of HE seeding. After 2 weeks of differentiation, SCF and TPO were withdrawn from the media, and the proT cells were replated into new DL4-coated plates and cultured in the presence of 20 ng/ml FLT3 and 15 ng/ml IL-7 till week 5, followed by 1 week of treatment with CD3/CD28 T activator (StemCell Tech, 10971) and 5 ng/ml IL-15 to induced SP T cells. During T cell differentiation, half media changes were conducted every 2-3 days. T cell differentiation using the OP9-DL1 co-culture system was conducted following previous reports (Holmes and Zúñiga-Pfücker, 2009) (Themeli et al., 2013). Briefly, day 8 CD34^+ HE cells were seeded on OP-DL1 stromal cells and co-cultured with OP9 media (α-MEME, 20% FBS, 1% penicillin-streptomycin, 1 mM None-essential amino acids, 2 mM L-Glutamine, 10 μM 2-Mercaptoethanol, 50 μg/ml 2-phospho-L-ascorbic acid) supplemented with 10 ng/ml SCF, 5 ng/ml FLT3, and 10 ng/ml IL-7. Cells were mechanically dissociated and filtered through 40 μm strainers to be seeded on new stromal cells every five days.

[1] = after 35 days, versus without IL-3

B1: IL-3: interleukin-3, cytokine added at 5 ng/ml (first week only) to the first differentiation medium (protein, UniProt P08700 20-152, looked up)
Interleukin-3: APMTQTTPLKTSWVNCSNMIDEIITHLKQPPLPLLDFNNLNGEDQDILMENNLRRPNLEAFNRAVKSLQNASAIESILKNLLPCLPLATAAPTRHPIHIKDGDWNEFRRKLTFYLKTLENAQAQQTTLSLAIF
For B1, the “cell proliferation (CD5+CD7+ T cell progenitors and CD33+ cells)” value (Day 14, effect not restricted to lymphoid cells) was “promoted cell proliferation”, the “Yield of CD3+ cells per 1000 CD34+ HE cells” value [1] was “increased; also recorded: modest increase” and the “frequency of CD3+ cells” value [1] was “slight reduction”.
